Laboratory results reported in paper PMC11700703 (Nature cardiovascular research, 2024).
“Also recorded” adds a separate entry of the source.

Tested on: immune-captured F1FO-ATP synthase (solubilized rat heart mitochondria)
Assay: cTnI binding to ATP synthase by ELISA
Details: relative to unphosphorylated cTnI

“cTnI-S42/44D: recombinant cTnI with phosphomimetic substitutions (serine to aspartate) at Ser42 and Ser44” was tested, and the “binding affinity to ATP synthase” value (n=4) was “greater binding affinity; also recorded: higher binding affinity” and the “maximal binding to ATP synthase” value (n=4 (h), n=6 (e)) was “greater maximal binding to ATP synthase than unphosphorylated cTnI”.
